This is an account of results in patent publication EP4834884A1, “TRPV3 INHIBITOR, AND PREPARATION THEREFOR AND USE THEREOF” (dated 2026).

Chains of the proteins cited; added tags and fusions are not shown.
UniProt Q8NET8, whole entry: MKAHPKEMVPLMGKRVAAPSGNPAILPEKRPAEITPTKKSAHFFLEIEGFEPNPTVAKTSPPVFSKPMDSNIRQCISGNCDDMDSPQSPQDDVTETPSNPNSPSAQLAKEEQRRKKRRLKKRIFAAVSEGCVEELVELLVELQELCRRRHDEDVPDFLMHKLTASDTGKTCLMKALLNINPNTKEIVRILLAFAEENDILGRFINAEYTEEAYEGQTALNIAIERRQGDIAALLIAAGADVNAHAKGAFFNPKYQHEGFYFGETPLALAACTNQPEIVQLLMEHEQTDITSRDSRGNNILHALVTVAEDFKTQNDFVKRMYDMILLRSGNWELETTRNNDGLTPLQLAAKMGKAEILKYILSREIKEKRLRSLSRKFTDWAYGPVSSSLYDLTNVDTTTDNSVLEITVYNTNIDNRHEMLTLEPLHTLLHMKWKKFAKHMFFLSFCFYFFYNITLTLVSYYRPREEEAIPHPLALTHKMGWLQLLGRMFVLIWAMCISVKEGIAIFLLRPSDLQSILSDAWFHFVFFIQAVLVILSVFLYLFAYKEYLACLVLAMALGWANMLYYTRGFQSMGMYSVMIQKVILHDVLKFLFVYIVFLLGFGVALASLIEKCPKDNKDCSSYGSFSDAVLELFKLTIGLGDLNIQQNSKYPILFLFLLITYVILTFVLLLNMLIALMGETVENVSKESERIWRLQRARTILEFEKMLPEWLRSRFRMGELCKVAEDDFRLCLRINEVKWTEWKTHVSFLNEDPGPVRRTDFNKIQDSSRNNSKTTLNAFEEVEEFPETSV
UniProt Q9EPK8, whole entry: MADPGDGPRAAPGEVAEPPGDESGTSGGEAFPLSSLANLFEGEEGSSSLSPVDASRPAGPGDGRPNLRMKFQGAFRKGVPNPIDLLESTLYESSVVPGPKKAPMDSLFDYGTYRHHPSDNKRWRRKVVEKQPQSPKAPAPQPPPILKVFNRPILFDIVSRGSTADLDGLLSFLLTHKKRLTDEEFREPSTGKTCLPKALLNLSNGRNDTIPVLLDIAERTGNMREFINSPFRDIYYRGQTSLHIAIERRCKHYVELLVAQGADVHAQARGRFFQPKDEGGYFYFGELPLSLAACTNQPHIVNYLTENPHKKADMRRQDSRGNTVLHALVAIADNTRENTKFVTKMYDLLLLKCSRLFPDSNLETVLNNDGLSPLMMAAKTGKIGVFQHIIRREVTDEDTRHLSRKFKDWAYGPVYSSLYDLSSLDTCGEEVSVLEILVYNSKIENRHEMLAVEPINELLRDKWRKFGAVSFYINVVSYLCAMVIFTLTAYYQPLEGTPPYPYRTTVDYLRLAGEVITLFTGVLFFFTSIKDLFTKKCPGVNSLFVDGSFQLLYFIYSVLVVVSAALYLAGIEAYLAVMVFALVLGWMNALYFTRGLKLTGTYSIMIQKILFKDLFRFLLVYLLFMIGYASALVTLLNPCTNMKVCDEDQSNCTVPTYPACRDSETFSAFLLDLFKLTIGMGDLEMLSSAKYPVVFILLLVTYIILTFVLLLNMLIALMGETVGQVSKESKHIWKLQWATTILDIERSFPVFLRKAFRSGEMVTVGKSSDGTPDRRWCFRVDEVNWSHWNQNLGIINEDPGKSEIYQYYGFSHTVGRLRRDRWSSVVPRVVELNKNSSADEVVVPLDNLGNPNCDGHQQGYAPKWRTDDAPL
UniProt O75762, whole entry: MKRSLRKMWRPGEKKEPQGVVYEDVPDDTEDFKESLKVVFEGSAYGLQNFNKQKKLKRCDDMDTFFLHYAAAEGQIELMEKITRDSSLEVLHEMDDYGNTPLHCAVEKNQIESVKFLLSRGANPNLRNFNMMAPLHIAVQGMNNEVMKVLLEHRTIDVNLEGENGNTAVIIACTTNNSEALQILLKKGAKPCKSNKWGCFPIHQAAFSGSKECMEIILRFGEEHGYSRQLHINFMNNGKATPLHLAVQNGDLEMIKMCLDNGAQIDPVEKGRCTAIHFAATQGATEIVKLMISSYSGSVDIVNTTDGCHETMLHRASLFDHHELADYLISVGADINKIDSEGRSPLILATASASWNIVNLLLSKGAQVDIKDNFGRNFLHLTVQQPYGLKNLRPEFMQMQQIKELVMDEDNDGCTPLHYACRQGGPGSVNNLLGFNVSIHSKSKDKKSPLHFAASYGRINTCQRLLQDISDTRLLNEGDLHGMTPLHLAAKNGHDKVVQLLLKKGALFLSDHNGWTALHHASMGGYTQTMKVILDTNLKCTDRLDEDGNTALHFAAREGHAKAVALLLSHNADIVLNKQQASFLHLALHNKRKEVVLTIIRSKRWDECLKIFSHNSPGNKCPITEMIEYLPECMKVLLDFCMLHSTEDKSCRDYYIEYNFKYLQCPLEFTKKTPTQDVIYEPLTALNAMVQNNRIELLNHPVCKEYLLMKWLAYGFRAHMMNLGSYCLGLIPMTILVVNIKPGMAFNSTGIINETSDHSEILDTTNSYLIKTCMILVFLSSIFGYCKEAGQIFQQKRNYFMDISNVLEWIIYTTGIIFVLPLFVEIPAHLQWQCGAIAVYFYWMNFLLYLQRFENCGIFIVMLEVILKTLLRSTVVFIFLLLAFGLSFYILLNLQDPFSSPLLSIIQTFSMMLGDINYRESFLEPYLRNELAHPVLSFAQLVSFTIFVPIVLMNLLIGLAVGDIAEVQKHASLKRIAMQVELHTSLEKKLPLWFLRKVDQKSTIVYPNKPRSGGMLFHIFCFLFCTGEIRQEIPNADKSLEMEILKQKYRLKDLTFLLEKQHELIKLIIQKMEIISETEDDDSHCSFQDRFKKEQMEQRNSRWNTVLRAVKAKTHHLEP
UniProt Q8NER1, whole entry: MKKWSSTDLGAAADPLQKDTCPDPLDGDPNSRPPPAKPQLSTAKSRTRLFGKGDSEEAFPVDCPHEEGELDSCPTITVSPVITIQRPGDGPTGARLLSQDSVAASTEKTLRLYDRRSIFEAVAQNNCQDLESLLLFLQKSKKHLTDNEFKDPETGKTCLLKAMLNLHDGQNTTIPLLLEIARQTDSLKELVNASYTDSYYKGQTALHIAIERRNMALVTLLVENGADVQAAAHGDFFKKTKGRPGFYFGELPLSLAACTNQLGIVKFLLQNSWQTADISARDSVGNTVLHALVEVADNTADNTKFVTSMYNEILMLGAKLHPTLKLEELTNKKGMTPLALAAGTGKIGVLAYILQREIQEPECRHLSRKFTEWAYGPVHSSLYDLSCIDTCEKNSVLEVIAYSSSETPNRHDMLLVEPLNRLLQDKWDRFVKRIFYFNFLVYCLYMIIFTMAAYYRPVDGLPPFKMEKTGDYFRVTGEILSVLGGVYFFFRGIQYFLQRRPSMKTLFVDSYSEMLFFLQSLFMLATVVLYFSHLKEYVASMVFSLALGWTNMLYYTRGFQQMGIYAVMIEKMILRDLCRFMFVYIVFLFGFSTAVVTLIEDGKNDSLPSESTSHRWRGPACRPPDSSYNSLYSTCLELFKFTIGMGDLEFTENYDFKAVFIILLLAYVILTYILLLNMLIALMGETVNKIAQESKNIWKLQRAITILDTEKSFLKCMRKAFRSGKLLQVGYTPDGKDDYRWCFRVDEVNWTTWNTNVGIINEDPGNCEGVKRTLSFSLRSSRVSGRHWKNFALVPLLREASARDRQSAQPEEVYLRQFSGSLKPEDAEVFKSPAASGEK
UniProt Q8K424, whole entry: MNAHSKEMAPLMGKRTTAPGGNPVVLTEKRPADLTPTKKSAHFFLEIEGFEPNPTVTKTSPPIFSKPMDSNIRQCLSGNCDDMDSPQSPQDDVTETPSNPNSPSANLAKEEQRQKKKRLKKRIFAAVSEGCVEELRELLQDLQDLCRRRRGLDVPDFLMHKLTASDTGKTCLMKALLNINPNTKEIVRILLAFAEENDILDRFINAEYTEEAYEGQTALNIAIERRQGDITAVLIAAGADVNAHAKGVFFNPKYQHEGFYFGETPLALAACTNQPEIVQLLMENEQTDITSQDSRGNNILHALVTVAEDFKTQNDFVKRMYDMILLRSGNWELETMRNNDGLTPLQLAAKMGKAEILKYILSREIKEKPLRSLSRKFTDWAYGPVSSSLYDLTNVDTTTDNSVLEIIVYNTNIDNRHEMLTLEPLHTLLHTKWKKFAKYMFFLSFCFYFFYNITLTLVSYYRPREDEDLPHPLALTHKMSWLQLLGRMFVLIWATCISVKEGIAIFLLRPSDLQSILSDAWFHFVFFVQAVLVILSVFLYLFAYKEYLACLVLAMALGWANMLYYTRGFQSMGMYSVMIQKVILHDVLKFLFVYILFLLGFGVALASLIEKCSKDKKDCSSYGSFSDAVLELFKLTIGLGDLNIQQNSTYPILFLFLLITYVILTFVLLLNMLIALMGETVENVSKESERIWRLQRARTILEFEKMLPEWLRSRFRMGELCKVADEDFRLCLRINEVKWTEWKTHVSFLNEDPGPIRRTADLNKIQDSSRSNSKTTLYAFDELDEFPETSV

One assay addresses hTRPV3 (Homo sapiens, UniProt Q8NET8). Kind of assay: Whole-cell patch-clamp inhibition of hTRPV3 in transfected HEK-293 cells. As to conditions: hTRPV3 in HEK-293 cells, agonist 2-APB (3 mM), holding potential -60 mV, antagonist pre-administered 1 minute. As for the experimental part:
Human embryonic kidney cells (HEK-293) (obtained from the Cell Bank of the Chinese Academy of Sciences) were cultured in Dulbecco's Modified Eagle's Medium (DMEM, obtained from Gibco) supplemented with 10% fetal bovine serum (FBS, obtained from PAM) in an incubator with 95% air and 5% carbon dioxide at 37°C. The HEK-293 cells was transfected with Human TRPV3 (hTRPV3) plasmids using a calcium phosphate transfection solution comprising two types of solutions: solution A containing 250 mM CaCl2 in pure water and solution B containing 1.5 mM Na2HPO4, 140 mM NaCl and 50 mM HEPES (with pH adjusted to 6.96). All the electrophysiological data were recorded 24 hours post transfection at the room temperature using an Axon 200B, with a holding potential of -60 mV. […] The Cells were immersed in a standard extracellular solution containing 150 mM NaCl, 5 mM KCl, 10 mM glucose, 2 mM CaCl2, 1 mM MgCl2 and 10 mM HEPES (with pH adjusted to 7.4 with Tris-base). The TRPV3 agonist 2-APB (3 mM), the TRPV1 agonist capsaicin (1 µM), the TRPV4 agonist GSK1016790A (100 nM) as well as each of the antagonists were diluted with a Ca^2+-free extracellular solution containing 150 mM NaCl, 5 mM KCl, 10 mM glucose and 10 mM HEPES (with pH adjusted to 7.4 with Tris-base) to prevent Ca^2+-induced channel desensitization. The Data were collected at 10 kHz and filtered at 2 kHz. Channels were repeatedly stimulated with agonists to ensure complete channel sensitization. Each of the antagonists was pre-administered for 1 minute, and then co-administered in the presence of an agonist. In addition, the TRPA1 agonist AITC (10 µM) and its antagonist (0.01-100 µM, approximately 3-fold dilution) were diluted with an agonist solution containing 150 mM NaCl, 5 mM KCl, 1 mM MgCl2, 10 mM glucose and 10 mM HEPES (with pH adjusted to 7.4 with Tris-base). TRPA1 was first stimulated to be openned with the agonist, followed by coadministration in the presence of the agonist. The Raw data were analyzed with a software of Origin to generate the curves. The values of IC50 values calculated using the Hill equation.
(In general: In patch-clamp work, channel activity is measured electrically.)

Assay [1] relates to carvacrol-induced pruritus model in mice. Kind of assay: Carvacrol-induced pruritus model in mice, topical application. To be noted: 50 µl applied on depilated nape 30 minutes before intradermal 2% carvacrol, vehicle control 74.25±13.76. An excerpt:
Carvacrol as a skin sensitizer has been proven to induce pruritus in mice by activating TRPV3 channels. […] Therefore, the carvacrol-induced pruritus model in mice can be used to evaluate the targeting of compounds for inhibiting TRPV3 and the pharmacological efficacy against pruritus.
64 SPF-grade C57BL/6 mice (male, 6-8 weeks old) were used as laboratory animals. After adaptive feeding, the mice were randomly divided into 8 groups: a normal control group, a model group, a vehicle control, a positive control group, a Compound 18 (2% concentration) group, a Compound 18 (8% concentration) group, a Compound 25 (2% concentration) group and a Compound 25 (8% concentration) group, with 8 mice per group. Two days before the experiment, a 2 x 3 cm^2 area on the nape of the animals was depilated. 30 minutes before modeling, the respective test compound or vehicle was applied on the depilated area on the nape according to the corresponding group in an amount of 50 µl per animal. 30 minutes after administration of the test substance, all the animals except the blank control group received an intradermal injection of 2% carvacrol at the nape at an injection dose of 50 µl per animal. An acute pruritus model was established, with scratching the head with forepaws, scratching the trunk with hind paws, and biting various body parts by the mouth as pruritus indicators. Sustained scratching of the modeling area by hind paws was counted as one scratch. If the animal paused, licked its paw, or put its hind paws down during scratching, it was counted as a second scratch when scratching again. The number of scratches during the observation period was observed and recorded, with the number of scratches at each time point being counted at 5-minute intervals, and the total number of scratches within 30 minutes was summarized.
Raw data were analyzed using a software of GraphPad, and were statistically analyzed using one-way ANOVA. […]

In the next assay the target is mTRPV4 (Mus musculus, UniProt Q9EPK8). As to the kind of experiment: Whole-cell patch-clamp inhibition of mTRPV4 (same method). To be noted: mTRPV4, agonist GSK1016790A (100 nM). As for the experimental part:
(§1) Human embryonic kidney cells (HEK-293) (obtained from the Cell Bank of the Chinese Academy of Sciences) were cultured in Dulbecco's Modified Eagle's Medium (DMEM, obtained from Gibco) supplemented with 10% fetal bovine serum (FBS, obtained from PAM) in an incubator with 95% air and 5% carbon dioxide at 37°C. The HEK-293 cells was transfected with Human TRPV3 (hTRPV3) plasmids using a calcium phosphate transfection solution comprising two types of solutions: solution A containing 250 mM CaCl2 in pure water and solution B containing 1.5 mM Na2HPO4, 140 mM NaCl and 50 mM HEPES (with pH adjusted to 6.96). All the electrophysiological data were recorded 24 hours post transfection at the room temperature using an Axon 200B, with a holding potential of -60 mV. […] The Cells were immersed in a standard extracellular solution containing 150 mM NaCl, 5 mM KCl, 10 mM glucose, 2 mM CaCl2, 1 mM MgCl2 and 10 mM HEPES (with pH adjusted to 7.4 with Tris-base). […] The Raw data were analyzed with a software of Origin to generate the curves. The values of IC50 values calculated using the Hill equation.
(§2) The values of IC50 (nM) of representative compounds of the present invention for inhibition of mTRPV3 (mouse TRPV3) and other TRP channels such as hTRPV1, mTRPV4 and hTRPA1 were also determined under the same conditions using the above described methods and materials. […]

For the next assay, the target named is hTRPA1 (Homo sapiens, UniProt O75762). Kind of assay: Whole-cell patch-clamp inhibition of hTRPA1 (same method). As to conditions: hTRPA1, agonist AITC (10 µM). As for the experimental part: as §1, §2
The next assay deals with hTRPV1 (Homo sapiens, UniProt Q8NER1). As to the kind of experiment: Whole-cell patch-clamp inhibition of hTRPV1 (same method). As to conditions: hTRPV1, agonist capsaicin (1 µM). As for the experimental part:
as §1, §2

The next assay deals with mTRPV3 (Mus musculus, UniProt Q8K424). Kind of assay: Whole-cell patch-clamp inhibition of mTRPV3 (same method). As to conditions: mTRPV3, same conditions as hTRPV3. As for the experimental part: as §1, §2

Some results are limits rather than exact numbers.

`Cc1ccc(OCCn2c(C(F)(F)F)nc3cc(C#N)ccc32)cc1`: the IC50 (commonly the concentration at which inhibition is half-maximal) at hTRPV3 came out at 220 nM. `Cc1ccc(OCCn2c(C(F)(F)F)nc3cc(F)ccc32)cc1`: the half-maximal inhibitory concentration (IC50) at hTRPV3 came out at 2440 nM.

As for `Cc1ccc2c(c1)nc(C(F)(F)F)n2CCOc1ccc(C(F)(F)F)cc1`, the 50% inhibitory concentration (IC50) on hTRPV3 amounted to 98 nM. `Cc1ccc(OCCn2c(C(F)(F)F)nc3cc(Cl)c(Cl)cc32)cc1` registered a half-maximal inhibitory concentration (IC50) at hTRPV3 of 100 nM. For “1-(2-((5-methylpyrid-2-yl)oxy)ethyl)-2,5-bis(trifluoromethyl)-1H-benzo[d]imidazole”, in assay [1] (8% concentration), the “pruritus numbers (total number of scratches within 30 minutes)” value amounted to 42.75±11.42. This molecule yielded an IC50 on hTRPV3 of 66 nM. For the molecule `Cc1ccc(OCCn2c(C(F)(F)F)nc3cc(C(F)(F)F)ccc32)cc1`, the concentration for half-maximal inhibition (IC50) is 3.89 µM on mTRPV4; over 300 µM at hTRPA1; 1620 nM on hTRPV1; 73 nM against mTRPV3; 51 nM at hTRPV3. For the molecule `Cc1ccc(OCCn2c(C(F)(F)F)nc3cc(F)c(F)cc32)cc1`, the concentration for half-maximal inhibition (IC50) on hTRPV3 was 1100 nM. `Cc1ccc(OCCn2c(C(F)(F)F)nc3cc(Cl)ccc32)cc1`: the “pruritus numbers (total number of scratches within 30 minutes)” value worked out at 13.00±6.11 in assay [1] (2% concentration) and 9.25±2.80 in assay [1] (8% concentration). Also, the half-inhibitory concentration (IC50) at hTRPV3 was determined as 85 nM.
